Measurements: paper PMC12836348, “Alanine Mutagenesis Identifies Specific Amino Acids of Nemertide Alpha‑1 Activity and Its Binding to Target Receptors” (Journal of Natural Products, 2025)

Experiments:
Type in all cases: cell-based
Set-up in all cases: key: “+” means tested and produced effect; “–“ means tested but no effect
[1] = test system: Kv1.6; assay: Ion channel panel, Kv1.6; settings: S12A at 5 μM; Xenopus oocytes, n ≥ 3
Excerpt: (§1) To assess the concentration–response relationships, data were fitted with the Hill equation: y = 100/[1 + (EC50/[toxin])^ h ], where y is the amplitude of the toxin-induced effect (y = I 30 ms/I peak where I 30 ms is the current value at 30 ms in the presence of toxin and I peak is the peak current amplitude in control conditions), EC50 is the toxin concentration at half-maximal efficacy, [toxin] is the toxin concentration, and h is the Hill coefficient. Potassium and calcium currents were evoked by a 500 ms depolarization to the voltage corresponding to the maximal activation of the channels in control conditions from a holding potential of −90 mV. Elicited currents were sampled at 1 kHz and filtered at 0.5 kHz. […] ASIC1a currents were measured in ND96 solutions at a pH of 7.4 and 4.5, at a holding potential of −70 mV during 400 s, and the data were filtered at 20 Hz. EnaC currents were measured by clamping oocytes at a holding potential of −60 mV and perfusing with low- (1 mM) and high- (96 mM) sodium ND96. Opioid currents were measured by clamping the potential to −70 mV and changing the perfusion solution from ND96 to high-potassium (HK) solution composed of 96 mM KCl, 2 mM NaCl, 1 mM MgCl2, 1.8 mM CaCl2, and 5 mM HEPES, with a final pH of 7.5. […] TRPV1 and TRPA1 currents were continuously monitored in a perfusing ND96 solution, following a protocol at −90 mV for 400 s. […]

[2] = test system: Kv2.1; assay: Ion channel panel, Kv2.1; settings: S12A at 5 μM; Xenopus oocytes, n ≥ 3
Excerpt: as §1

[3] = test system: Kv7.1; assay: Ion channel panel, Kv7.1; settings: S12A at 5 μM; Xenopus oocytes, n ≥ 3
Excerpt: as §1

[4] = test system: KQT-1; assay: Ion channel panel, KQT-1; settings: S12A at 5 μM; Xenopus oocytes, n ≥ 3
Excerpt: as §1

[5] = test system: Cav3.1; assay: Ion channel panel, Cav3.1; settings: S12A at 5 μM; Xenopus oocytes, n ≥ 3
Excerpt: as §1

[6] = test system: Cav3.3; assay: Ion channel panel, Cav3.3; settings: S12A at 5 μM; Xenopus oocytes, n ≥ 3
[7] = test system: αβγδ; assay: Ion channel panel, nAChR αβγδ; settings: S12A at 5 μM, oocytes at −70 mV, 5 min incubation, n ≥ 3
Excerpt: as §1

[8] = test system: αβδε; assay: Ion channel panel, nAChR αβδε; settings: S12A at 5 μM, oocytes at −70 mV, 5 min incubation, n ≥ 3
Excerpt: as §1

[9] = test system: α3β2; assay: Ion channel panel, nAChR α3β2; settings: S12A at 5 μM, oocytes at −70 mV, 5 min incubation, n ≥ 3
Excerpt: as §1

[10] = test system: α4β4; assay: Ion channel panel, nAChR α4β4; settings: S12A at 5 μM, oocytes at −70 mV, 5 min incubation, n ≥ 3
Excerpt: as §1

[11] = test system: TRPV1; assay: Ion channel panel, TRPV1; settings: S12A at 5 μM; −90 mV, 1 μM capsaicin, 10 μM capsazepine, n ≥ 3
Excerpt: as §1

CC[C@H](C)[C@@H]1NC(=O)[C@@H](NC(=O)CN)CSSC[C@@H]2NC(=O)[C@@H]3CSSC[C@@H](C(=O)N[C@@H](CC(N)=O)C(=O)N4C[C@H](O)C[C@H]4C(=O)N4C[C@H](O)C[C@H]4C(=O)N[C@@H](CC(N)=O)C(=O)N[C@@H](CCC(N)=O)C(=O)O)NC(=O)[C@H](CCCCN)NC(=O)[C@H](Cc4ccccc4)NC(=O)[C@H](CC(N)=O)NC(=O)[C@H](Cc4c[nH]c5ccccc45)NC(=O)CNC(=O)[C@H](CSSC[C@H](NC(=O)[C@H](Cc4ccccc4)NC(=O)[C@H](CO)NC(=O)CNC(=O)[C@H]([C@@H](C)O)NC(=O)[C@H](C)NC1=O)C(=O)N[C@@H]([C@@H](C)O)C(=O)N[C@@H](CC(C)C)C(=O)N[C@@H](C)C(=O)N[C@@H](CCCCN)C(=O)NCC(=O)N3)NC(=O)[C@H](CC(N)=O)NC(=O)[C@H](CCCCN)NC(=O)[C@H]([C@@H](C)O)NC2=O [Peptide S12A]
–: effect on Kv1.6 [1] | effect on Kv2.1 [2] | effect on Kv7.1 [3] | effect on KQT-1 [4] | effect on Cav3.1 [5] | effect on Cav3.3 [6] | effect on αβγδ [7] | effect on αβδε [8] | effect on α3β2 [9] | effect on α4β4 [10] | effect on TRPV1 [11]
